Yeast mating assay 2: variants of the scFv Ab-91

Reference: Engelhart et al. 2022, doi:10.1038/s41597-022-01779-4. File: FLAb, binding data.

Antigen: PDVDLGDISGINAS, a 14-residue peptide of the SARS-CoV-2 spike HR2 region.

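The starting antibody came from a phage panning campaign against this peptide. AAYL51 was designed without a model: most single CDR substitutions and a random sample of double and triple ones. AlphaSeq pools MATa yeast showing the antibodies with MATalpha yeast showing the peptide. The frequency of each diploid, read from paired DNA barcodes, reflects how well the two displayed proteins bind. Each replicate has its own calibration line, from reference interactions of the BCL2 family. Each pool was mated in three replicate cultures.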

The variants keep the light chain, the linker and the frameworks of Ab-91 (scFv order VL, three GGGGS repeats, VH).
VL: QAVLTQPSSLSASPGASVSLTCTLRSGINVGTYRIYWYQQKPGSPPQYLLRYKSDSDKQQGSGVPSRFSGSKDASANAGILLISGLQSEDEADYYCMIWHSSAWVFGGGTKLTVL
VH: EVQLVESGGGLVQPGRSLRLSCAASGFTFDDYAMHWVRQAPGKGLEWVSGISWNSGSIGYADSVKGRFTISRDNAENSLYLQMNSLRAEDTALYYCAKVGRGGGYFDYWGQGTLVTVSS

Each variant is given by its three heavy chain CDRs, as the data file delimits them; those of the parent are GFTFDDYAMH, GISWNSGSIGYADSVK, VGRGGGYFDY. Every variant below is changed at G26 of the VH (sequential numbering). Values are apparent Kd, the geometric mean of the replicates that gave a signal; lower means stronger binding. A pair that was not seen in any replicate is written "no signal"; this usually means weak binding, but a binder can also be missed.

* YFTFDDYAMH | GISWNSGSIGYADSVK | VGRGGGYFDY: 78 nM (3 of 3 replicates)
* PFTFDDYAMH | GISWNSGSIGYADSVK | QGNGGGYFDY: 2.8 µM (2 of 3 replicates)
* RFTFDDYAMH | GISWNSGSIGGADSVK | VGWGGGYFDY: no signal (0 of 3 replicates)
* SFTFDDYGMH | GISWNSGSIGYADSVK | TGRGGGYFDY: 1.3 µM (3 of 3 replicates)
* WFTFSDYAMH | GISWNSGSIGYADSVL | VGRGGGYFDY: 50 µM (1 of 3 replicates)
* TFTFDDYAMH | GASWNSGSIGYADSVK | VGRGGGYFDY: 13 µM (1 of 3 replicates)
* LFTFDDYAMH | GISWYSGSIGYADSVK | VGRGGGYFDK: 1.0 mM (2 of 3 replicates)
* NFTFEDYAMH | GISWNSGSIGYADSVK | VGRGGGYFDI: 120 µM (2 of 3 replicates)
* DFTFDDYAMH | GISWNSGHRGYADSVK | VGRGGGYFDY: no signal (0 of 3 replicates)
* YFFFDDYAMH | GISWNSGSIGKADSVK | VGRGGGYFDY: 230 µM (2 of 3 replicates)
* TFTWDDYAMH | GISWNSGSIGYADSVK | VGRGIGYFDY: no signal (0 of 3 replicates)
* SFTFDDYAMH | GISWNSGSIGYADSVK | VGRGGGYFDY: 30 nM (3 of 3 replicates)
* SFTWDDYAMH | GISWNSGSIGYADSEK | VGRGGGYFDY: 36 µM (1 of 3 replicates)
* WFTFDDYAMH | GISWNSGSIGYSDSVK | VGRGGGYFDW: no signal (0 of 3 replicates)
* KRTFDAYAMH | GISWNSGSIGYADSVK | VGRGGGYFDY: 21 µM (2 of 3 replicates)
* KFQFDDYAMH | GISWNSGSIGYAMSVK | VGRGGGYFDY: no signal (0 of 3 replicates)
* HFTFDDYAMH | GISWNSGSIGYADQVK | VGRGGVYFDY: no signal (0 of 3 replicates)
* WFTFDDYAMH | GISRNSGYIGYADSVK | VGRGGGYFDY: 7.4 µM (1 of 3 replicates)
* YFTFDLYAMH | GISWNSGSIGYADSVK | VGRGGGYFDY: 830 nM (3 of 3 replicates)
* KFTFDDYAMH | GISWNSGSIGYADSAK | VGRGGGYLDY: 11 µM (1 of 3 replicates)
* QFTFDDYAMH | GISWISGSIGYVDSVK | VGRGGGYFDY: no signal (0 of 3 replicates)
* VFTFDDVAMH | GISWNFGSIGYADSVK | VGRGGGYFDY: no signal (0 of 3 replicates)
* FFTFDDYAMH | GNSWNSGSIGWADSVK | VGRGGGYFDY: no signal (0 of 3 replicates)
* MFTFDDYAMH | GISWNSGSIGYADSVA | VGRGGGYFDY: 290 µM (1 of 3 replicates)
* DFTFYDYAMH | GISWNSGSIGYADSVK | VGRGGGYFDK: 190 µM (3 of 3 replicates)
* CFTFDDYAMH | GISWNSGSIGYAWSVK | VGRGGDYFDY: no signal (0 of 3 replicates)
* RFTFDVYAMH | GISWNSGSIYYADSVK | VGRGGGYFDY: no signal (0 of 3 replicates)
* IFTFDDYAMH | SISWASGSIGYADSVK | VGRGGGYFDY: no signal (0 of 3 replicates)
* AFTFDDYAMH | GISWNSGSIGIADSVK | VGRGAGYFDY: 280 µM (2 of 3 replicates)
* CFTFDDYAMH | GISSNSGIIGYADSVK | VGRGGGYFDY: 110 nM (1 of 3 replicates)
* AFTFDDYAMH | GNSWNSGSIGYADSVK | VGRGGGYFDY: no signal (0 of 3 replicates)
* HFTFDDYAMH | GISWNSGSIGYADSVQ | VGRGGGHFDY: 42 µM (2 of 3 replicates)
* SFTFDDYAMH | GISFNSGSIGYADSVI | VGRGGGYFDY: no signal (0 of 3 replicates)
* HFTFDDYAMH | GISWNSGSIGYADSVK | VGVEGGYFDY: no signal (0 of 3 replicates)
* SFTFYDYAMH | GISWNSGSIGYALSVK | VGRGGGYFDY: no signal (0 of 3 replicates)
* IFTFDDYGMH | GISWNSGSIGYADSVK | VGRGDGYFDY: 1.0 µM (3 of 3 replicates)
* CFTFDDYAMH | GLSWNSQSIGYADSVK | VGRGGGYFDY: 54 µM (1 of 3 replicates)
* CFTFDDYAMH | GISWNSESIGYADSVK | VGRGGGYFDY: 350 nM (3 of 3 replicates)
* TFTFDDYAMC | GISWNSGSIGYADSVK | VGWGGGYFDY: 6.5 µM (1 of 3 replicates)
* PFTFDDYAMH | GISWNSGSIGYADSVK | VGQGGGIFDY: no signal (0 of 3 replicates)
* CFTFDDAAMH | GISWNSGSIGMADSVK | VGRGGGYFDY: 46 µM (2 of 3 replicates)
* HFTFDDYAMH | GISWNSGSIGYADSVR | VGRGGGYFDY: 820 nM (3 of 3 replicates)
* CFTLDDYAMH | GISWNSGSIGYADSVI | VGRGGGYFDY: 6.7 µM (1 of 3 replicates)
* CFTFDDYAMH | GISWNSGSIGYATSVK | VGRGGGTFDY: no signal (0 of 3 replicates)
* QFTFDDYAMH | GISWNSGSIGYADSVK | AGRGQGYFDY: 300 µM (3 of 3 replicates)
* IFTFDDYAMH | GISWFSGSIGYADSVK | VGRGGGYFDY: no signal (0 of 3 replicates)
* MFTFDDYAMH | GISWNSGSAGYADSWK | VGRGGGYFDY: no signal (0 of 3 replicates)
* NFTFDDYAMH | GISWNSLSIGYHDSVK | VGRGGGYFDY: 3.8 µM (3 of 3 replicates)
* HFTFDDYAMH | GISWNSGSIGYADSTK | VGRGGGYFDY: 48 µM (3 of 3 replicates)

A selection of 8 entries from above:

{"CDR-H1": "SFTFDDYGMH", "CDR-H2": "GISWNSGSIGYADSVK", "CDR-H3": "TGRGGGYFDY", "Kd": "1.3 µM", "detected": "3/3"}
{"CDR-H1": "WFTFSDYAMH", "CDR-H2": "GISWNSGSIGYADSVL", "CDR-H3": "VGRGGGYFDY", "Kd": "50 µM", "detected": "1/3"}
{"CDR-H1": "HFTFDDYAMH", "CDR-H2": "GISWNSGSIGYADSVQ", "CDR-H3": "VGRGGGHFDY", "Kd": "42 µM", "detected": "2/3"}
{"CDR-H1": "TFTFDDYAMC", "CDR-H2": "GISWNSGSIGYADSVK", "CDR-H3": "VGWGGGYFDY", "Kd": "6.5 µM", "detected": "1/3"}
{"CDR-H1": "LFTFDDYAMH", "CDR-H2": "GISWYSGSIGYADSVK", "CDR-H3": "VGRGGGYFDK", "Kd": "1.0 mM", "detected": "2/3"}
{"CDR-H1": "MFTFDDYAMH", "CDR-H2": "GISWNSGSIGYADSVA", "CDR-H3": "VGRGGGYFDY", "Kd": "290 µM", "detected": "1/3"}
{"CDR-H1": "RFTFDVYAMH", "CDR-H2": "GISWNSGSIYYADSVK", "CDR-H3": "VGRGGGYFDY", "Kd": "no signal", "detected": "0/3"}
{"CDR-H1": "HFTFDDYAMH", "CDR-H2": "GISWNSGSIGYADQVK", "CDR-H3": "VGRGGVYFDY", "Kd": "no signal", "detected": "0/3"}

Parent in this assay: reference entry 72 nM, copy in this library 7.5 nM. Background: pairings of library AAYL51 with three empty control strains gave a value in 21% of cases (median 34 µM, 5th percentile 1.8 µM). Values in that range, when seen in few replicates, are hard to tell from nonspecific mating.